In PubChem BioAssay (Tox21):
All entries are inconclusive by the source's own rule. Clear calls are listed elsewhere. Calls come from the whole dose curve; as a rule, active = well fitted cell-killing curve with a large enough effect in the repeat runs; inconclusive = weak or mixed curves, or effect the other way; inactive = flat fitted curve, though single readings scatter.
Potency is the fitted concentration of half-maximal effect.

Assay: cAMP Responsive Elements (CRE) small molecule agonists, cell-based qHTS assay: qHTS cell viability counter screen (AID 2060914);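 note: viability read after 3 h of compound exposure; nearly all actives have a fitted effect of over 50% in size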
Details: CRE-bla HEK293T viability, CellTiter-Glo luminescence, 5 h
Source text: National Center for Advancing Translational Sciences [NCATS]
Division of Preclinical Innovation [DPI]
U.S. Environmental Protection Agency [EPA]
National Institutes of Environmental Health Sciences [NIEHS]
National Toxicology Program [NTP]
U.S. Food and Drug Administration [FDA]
CREB (cyclic-AMP Responsive Element Binding Protein) is a cellular transcription factor. It binds to certain DNA sequences called cAMP Responsive Elements (CRE) and regulates the transcription of the genes. […] This cell line can be used to find agonists/antagonists of the cyclic AMP signaling pathway. The activation of the report gene under culture conditions can be detected by fluorescence intensity. This cell line has been used to screen the Tox21 10K compound library to identify agonists that induce oxidative stress. The cytotoxicity of the Tox21 compound library against the CRE-bla cell line was tested in parallel by measuring the cell viability using CellTiter-Glo assay (Promega, Madison, WI) in the same wells.
Tox21 Assay Protocol Summary:
CRE-bla Hek 293T cells were suspended in assay medium (DMEM containing 10% dialyzed FBS, 0.1 mM NEAA, 1 mM sodium pyruvate and 25 mM HEPES) and dispensed at 2,000 cells/5 uL /well into 1536-well black wall/clear bottom plates using a Multidrop Combi (ThermoFisher Scientific, Waltham, MA) dispenser. […] The plates were incubated at room temperature for 2 h, then fluorescence intensities were measured using an Envision plate reader (PerkinElmer, Shelton, CT) at Excitation 405nm, Emission 460nm and 530nm. The % activity was determined from the ratio of 460nm/530nm. For cell viability readout that measures cytotoxicity, 4 uL /well of CellTiter-Glo reagent was added into the assay plates using Bioraptr FRD. After 30 min incubation at room temperature, the luminescence intensity in the assay plates was measured using a ViewLux (PerkinElmer, Shelton, CT) plate reader.
For Cc1cc([N+](=O)[O-])cc([N+](=O)[O-])c1O, the Potency was inconclusive: 15400 nM. For CCOC(=O)Cl, the Potency was inconclusive: 920 nM. In the case of ClP(Cl)c1ccccc1, the Potency is reported as inconclusive: 611 nM.
